This assay has as its target HDAC4 (Homo sapiens, UniProt P56524). In kind it is biochemical. Particulars: Table 1.

Chains of the proteins cited; added tags and fusions are not shown. Lines headed by an entry give the natural chain unless they say otherwise; changes in a name come on top.
UniProt P56524: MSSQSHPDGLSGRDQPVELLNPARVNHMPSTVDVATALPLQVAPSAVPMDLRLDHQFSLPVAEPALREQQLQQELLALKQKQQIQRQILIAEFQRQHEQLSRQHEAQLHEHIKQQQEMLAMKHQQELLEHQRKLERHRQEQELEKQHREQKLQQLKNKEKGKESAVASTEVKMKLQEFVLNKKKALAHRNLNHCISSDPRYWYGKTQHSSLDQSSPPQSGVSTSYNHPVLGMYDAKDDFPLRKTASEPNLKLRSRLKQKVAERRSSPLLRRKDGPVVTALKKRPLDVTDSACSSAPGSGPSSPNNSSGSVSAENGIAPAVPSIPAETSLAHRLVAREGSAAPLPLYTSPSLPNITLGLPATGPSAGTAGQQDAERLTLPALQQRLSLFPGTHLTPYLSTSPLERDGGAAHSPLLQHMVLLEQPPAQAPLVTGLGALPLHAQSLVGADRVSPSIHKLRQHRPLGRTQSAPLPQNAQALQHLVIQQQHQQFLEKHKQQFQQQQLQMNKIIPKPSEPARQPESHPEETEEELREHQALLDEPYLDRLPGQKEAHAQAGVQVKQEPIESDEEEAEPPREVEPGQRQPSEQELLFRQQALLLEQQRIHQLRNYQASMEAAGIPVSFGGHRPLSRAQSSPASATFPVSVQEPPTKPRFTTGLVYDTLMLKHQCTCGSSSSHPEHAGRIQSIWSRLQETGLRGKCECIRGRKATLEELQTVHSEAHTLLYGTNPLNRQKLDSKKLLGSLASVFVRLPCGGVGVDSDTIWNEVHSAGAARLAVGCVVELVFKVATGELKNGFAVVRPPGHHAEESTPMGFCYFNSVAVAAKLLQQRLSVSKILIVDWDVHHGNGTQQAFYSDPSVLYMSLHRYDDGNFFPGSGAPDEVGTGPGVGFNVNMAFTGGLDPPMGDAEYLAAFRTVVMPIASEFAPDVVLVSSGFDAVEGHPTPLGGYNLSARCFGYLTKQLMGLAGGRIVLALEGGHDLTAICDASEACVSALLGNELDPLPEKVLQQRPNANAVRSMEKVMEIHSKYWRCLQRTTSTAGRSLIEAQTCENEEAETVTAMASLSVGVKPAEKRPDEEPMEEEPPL

Compound `COc1ccc(Cn2ccc3ccc(C(=O)NO)cc32)cc1` [Compound 6, PCI-34051, reference compound] returned a concentration for half-maximal inhibition (IC50) of 10 ± 1 µM.
